Consider four compounds from patent publication US5232633A, “Sulfoethyl carbonate wetting agents and their use in detergent compositions” (priority 1992, dated 1993).

The nature of series [1]: Foam height, Ross-Miles method. Type of series: physicochemical. Conditions: 45° C., water with 120 ppm calcium hardness; for Foam Ht., 10 min Ht.: after 10 minutes.
Series [2] concerns zein. As to conditions: 1% solution of surfactant (30 mls), 1.5 g zein, room temperature, 1 hr. The protocol:
Specifically, the lower the amount of zein protein dissolved, usually the milder a surfactant is. Conversely, the more zein dissolved, typically the more irritating the surfactant is. In order to test irritancy potential, a 1% solution of surfactant (30 mls) was added to 1.5 g zein and stirred at room temperature for 1 hr. Residual zein was collected and dried to constant weight. Differences between starting and residual weights were used to calculate % zein dissolved.

`CCCCCCCCCCCCOC(=O)OCCS(=O)(=O)O.[Na]`: the Foam Ht., Initial Ht. in series [1] was 159 mm.
Turning to “Sodium 2-sulfoethyl C16 Guerbet carbonate [SEC16GC]”, in series [1], the Foam Ht., 10 min Ht. was 159 mm and the Foam Ht., Initial Ht. was found to be 170 mm.
The corresponding values for “Sodium 2-sulfoethyl C18 Guerbet carbonate [SEC18GC]” are 35 mm and 44 mm.
Regarding “Sodium 2-sulfoethyl tetradecyl/dodecyl (2EO) carbonate [SET/D(2EO)C]”, the “% Zein Solub.” value in series [2] came to 25%. In series [1], the Foam Ht., 10 min Ht. turned out to be 153 mm and the Foam Ht., Initial Ht. turned out to be 159 mm.
